What was measured:
interleukin-1 mRNA = assay: mRNA analysis of brain nuclei by real-time PCR (Example 4); type: in vivo, rat; settings: dorsal periaqueductal grey region, FIG. 8
Procedure: (§1) Following scoring of withdrawal behaviors animals received an intraperitoneal injection of 0.8 ml of 50 mg/ml sodium pentobarbital, and once anesthetized, animals were transcardially perfused. Half of each treatment group were perfused with saline and half with 4% paraformaldehyde. Spinal cord and brains were collected (saline perfusion for protein and mRNA quantification and paraformaldehyde perfusion for immunohistochemistry). Samples collected from saline perfused animals were flash frozen in liquid nitrogen and stored at −80° C. Paraformaldehyde perfused samples were stored in 4% paraformaldehyde for 48 hours and then transferred to 30% sucrose (0.1% azide) until tissue sectioning.
Amplification of cDNA was performed using the QUANTITECT SYBR GREEN PCR kit (Qiagen, Valencia, Calif.) in ICYCLER IQ 96-well PCR plates (Bio-Rad, Hercules, Calif.) on a MYIQ single color real-time PCR detection system (Bio-Rad). The reaction mixture (26 μl) was composed of 1× QUANTITECT SYBR GREEN PCR master mix (containing the fluorescent dye SYBR green I, 2.5 mM MgCl2, dNTP mix, and HOTSTART Taq DNA polymerase), 10 nM fluorescein, 500 nM each of forward and reverse primers, 25 ng cDNA and nuclease-free H2O. Reactions were done in triplicate (n=3-6 animals/group). […] Linearity and efficiency of PCR amplification were assessed using standard curves generated by increasing amounts of cDNA. […]

[1] = system: microglial activation marker CD11b; assay: Brain immunohistochemistry and densitometry of microglial activation marker (Example 4); type: in vivo, rat; settings: for CD11b densitometry: FIG. 7
Procedure: as §1
Immunoreactivity for OX-42 (antibody that recognizes complement type 3 receptors, e.g., CD11b) and/or glial fibrillary acidic protein (GFAP), microglial and astrocyte activation markers, respectively, were assessed. Sections (20 μm) were treated with 0.3% H2O2 in Tris-buffered saline (TBS) for 20 minutes at room temperature to suppress endogenous peroxidase activity. Sections were then incubated overnight at 4° C. in monoclonal mouse anti-rat OX-42 (1:100; Pharmingen, San Diego, Calif.) or monoclonal mouse anti-rat GFAP antibody (1:200; Chemicon, Temecula, Calif.) in TBS with 2% normal goat serum and 0.5% Triton-X-100. Subsequently, sections were incubated with the appropriate secondary biotinylated antibodies (1:400; Jackson ImmunoResearch, West Grove, Pa.) for 2 hours at room temperature, incubated in avidin -biotin complex solution (ABC; 1:200; Vector Laboratories, Burlingame, Calif.) for 2 hours at room temperature, followed by reaction with 0.5 mg/ml 3,3′-diaminobenzidine tetrahydrochloride (DAB; Sigma). Finally, sections were dried, dehydrated, and coverslipped with Permount. Staining was evaluated by light microscopy. Densitometry of immunohistochemical staining was subsequently evaluated using computer software (NIH image).

SMILES: CC(C)C(=O)c1c(C(C)C)nn2ccccc12 [ibudilast, 2-methyl-1-(2-(1-methylethyl)pyrazolo(1,5-a)pyridin-3-yl)1-propanone]
- morphine induced increase in interleukin-1 mRNA (interleukin-1 mRNA): completely blocked the morphine induced increase in interleukin-1 mRNA
- morphine-induced increase in CD11b staining ([1]; immunohistochemistry, FIG. 6): dramatically reduced the increase in the CD11b marker
- CD11b densitometry ([1]; periaqueductal grey): significant reduction in the microglial activation marker CD11b
- CD11b densitometry ([1]; trigeminal nucleus): significant reduction in the microglial activation marker CD11b

— patent US7915285B2, “Method for treating drug and behavioral addictions” (priority 2005, dated 2011)
